# Measured values: ChEMBL document CHEMBL1133607, “Nonpeptide analogues of dynorphin A(1-8): design, synthesis, and pharmacological evaluation of kappa-selective agonists” (J Med Chem, 2000)
# Sequences of proteins named here, by UniProt entry; tags and fusion partners are left off. A change or cut given only in a name is not applied to a line headed by its entry.
# UniProt P41145: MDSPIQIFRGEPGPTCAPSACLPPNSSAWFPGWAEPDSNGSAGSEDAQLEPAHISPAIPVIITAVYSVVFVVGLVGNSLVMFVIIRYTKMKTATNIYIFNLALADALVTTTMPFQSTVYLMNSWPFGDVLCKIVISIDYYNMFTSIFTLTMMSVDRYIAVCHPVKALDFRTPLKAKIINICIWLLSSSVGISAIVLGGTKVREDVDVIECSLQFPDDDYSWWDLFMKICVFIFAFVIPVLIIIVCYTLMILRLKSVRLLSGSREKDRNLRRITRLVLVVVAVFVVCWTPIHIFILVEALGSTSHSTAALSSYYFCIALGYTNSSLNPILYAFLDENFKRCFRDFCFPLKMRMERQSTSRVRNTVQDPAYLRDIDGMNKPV
# UniProt P35372, whole entry, looked up: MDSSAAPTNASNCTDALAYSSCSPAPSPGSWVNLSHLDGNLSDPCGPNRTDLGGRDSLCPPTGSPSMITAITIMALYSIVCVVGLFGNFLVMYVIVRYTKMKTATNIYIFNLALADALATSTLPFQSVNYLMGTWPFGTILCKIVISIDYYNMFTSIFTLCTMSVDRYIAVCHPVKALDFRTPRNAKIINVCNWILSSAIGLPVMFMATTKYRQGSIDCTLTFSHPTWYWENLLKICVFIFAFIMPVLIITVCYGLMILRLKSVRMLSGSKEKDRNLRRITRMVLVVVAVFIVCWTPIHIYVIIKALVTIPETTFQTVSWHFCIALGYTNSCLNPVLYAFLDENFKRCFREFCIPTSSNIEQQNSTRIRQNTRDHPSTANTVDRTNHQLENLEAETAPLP
# What was measured:
# [1] = Ratio of rotarod value MPE50/antinociceptive activity MPE50
# Cavia porcellus = species on record: Cavia porcellus; experiment: Ratio of affinity towards delta to kappa opioid receptor
# [2] = molecular target: Opioid receptors; mu & kappa (UniProt P41145+P35372); experiment: Ratio of affinity towards mu and kappa opioid receptors; format: protein assay
# Mus musculus [3] = experiment: Effective dose after 10 mg/kg of nor-BNI administered subcutaneously 10 min before agonist administered in mouse rotarod test; Full antagonism of the pharmacological effect produced by the ED50 dose of the agonist; details: filed as antagonist
# Mus musculus [4] = experiment: Antinociceptive activity by measuring effective dose after 10 mg/kg of nor-BNI administered subcutaneously 10 min before agonist administered in mouse; Full antagonism of the pharmacological effect produced by the ED50 dose of the agonist; details: filed as antagonist
SMILES,Ratio [1],Selectivity ratio (Cavia porcellus),Selectivity ratio [2],ED50 (Mus musculus [3]),ED50 (Mus musculus [4])
CN(C(=O)Cc1ccc(Cl)c(Cl)c1)C1CCCCC1N1CCCC1 (configuration not stated),10.8,,,,
CCCCC(=N)NCCCCCCNC(=O)C(CC(C)C)NC(=O)CNC(=O)[C@]1(c2ccccc2)CC1CN1CC[C@@]2(C)c3cc(O)ccc3CC1C2C (some centres not stated),10.8,424,408,,
CCCCC(=N)NCCCCCCNC(=O)C(CC(C)C)NC(=O)CNC(=O)[C@]1(c2ccccc2)CC1CN1CC[C@@]2(C)c3cc(O)ccc3CC1C2C.Oc1ccc2c3c1OC1c4[nH]c5c(c4C[C@@]4(O)C(C2)N(CC2CC2)CCC314)C[C@@]1(O)[C@H]2Cc3ccc(O)c4c3C1(CCN2CC1CC1)C5O4 (some centres not stated),,,,Antagonist,Antagonist
CCCCC(=N)NCCCCCNC(=O)C(CC(C)C)NC(=O)CNC(=O)[C@]1(c2ccccc2)CC1CN1CC[C@@]2(C)c3cc(O)ccc3CC1C2C (some centres not stated),10.4,408,375,,
CCCCC(=N)NCCCCCNC(=O)C(CC(C)C)NC(=O)CNC(=O)[C@]1(c2ccccc2)CC1CN1CC[C@@]2(C)c3cc(O)ccc3CC1C2C.Oc1ccc2c3c1OC1c4[nH]c5c(c4C[C@@]4(O)C(C2)N(CC2CC2)CCC314)C[C@@]1(O)[C@H]2Cc3ccc(O)c4c3C1(CCN2CC1CC1)C5O4 (some centres not stated),,,,Antagonist,Antagonist
CN(C(=O)Cc1ccc(Cl)c(Cl)c1)C1CCCCC1N1CCCC1.Oc1ccc2c3c1OC1c4[nH]c5c(c4C[C@@]4(O)C(C2)N(CC2CC2)CCC314)C[C@@]1(O)[C@H]2Cc3ccc(O)c4c3C1(CCN2CC1CC1)C5O4 (some centres not stated),,,,Antagonist,
